pIC50: −log10 of the molar value.

Protein sequences, listed by entry. Tags and fused reporters are not part of them.
UniProt Q06124, whole entry: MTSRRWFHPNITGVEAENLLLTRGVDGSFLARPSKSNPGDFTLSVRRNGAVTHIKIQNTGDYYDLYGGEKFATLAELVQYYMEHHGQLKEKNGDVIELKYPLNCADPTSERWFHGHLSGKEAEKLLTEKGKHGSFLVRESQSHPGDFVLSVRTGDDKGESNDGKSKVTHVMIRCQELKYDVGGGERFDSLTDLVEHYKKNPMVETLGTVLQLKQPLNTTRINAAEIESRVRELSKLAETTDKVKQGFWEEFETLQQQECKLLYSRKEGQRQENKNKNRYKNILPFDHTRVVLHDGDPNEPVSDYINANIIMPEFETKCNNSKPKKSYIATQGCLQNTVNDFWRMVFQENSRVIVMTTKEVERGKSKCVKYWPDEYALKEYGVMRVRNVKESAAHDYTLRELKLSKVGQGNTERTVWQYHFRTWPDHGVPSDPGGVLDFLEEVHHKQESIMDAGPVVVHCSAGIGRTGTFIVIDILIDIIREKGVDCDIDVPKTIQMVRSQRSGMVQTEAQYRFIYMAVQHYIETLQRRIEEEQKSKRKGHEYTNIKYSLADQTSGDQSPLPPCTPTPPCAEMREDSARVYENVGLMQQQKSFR

The assay concerns the target SHP2 (Homo sapiens (Human), UniProt Q06124). Nature of the assay: SHP2 Allosteric Inhibition Assay (DiFMUP prompt fluorescence). Conditions: read-out: SHP2 IC50; 0.25 nM SHP2 activated with 0.5 μM peptide IRS1_pY1172(dPEG8)pY1222; substrate DiFMUP 100 μM. The source says:
SHP2 Allosteric Inhibition Assay.
SHP2 is allosterically activated through binding of bis-tyrosyl-phorphorylated peptides to its Src Homology 2 (SH2) domains. The latter activation step leads to the release of the auto-inhibitory interface of SHP2, which in turn renders the SHP2 protein tyrosine phosphatase (PTP) active and available for substrate recognition and reaction catalysis. The catalytic activity of SHP2 was monitored using the surrogate substrate DiFMUP in a prompt fluorescence assay format.
More specifically, the phosphatase reactions were performed at room temperature in 96-well black polystyrene plate, flat bottom, low flange, non-binding surface (Corning, Cat #3575) using a final reaction volume of 50 μl and the following assay buffer conditions: 60 mM HEPES, pH 7.2, 75 mM NaCl, 75 mM KCl, 1 mM EDTA 0.005% Brij-35, 5 mM DTT.
The inhibition of SHP2 by compounds of the disclosure (concentrations varying from 0.003-100 μM) was monitored using an assay in which 0.25 nM of SHP2 was incubated with of 0.5 μM of peptide IRSl_pY1172(dPEG8)pY1222 (sequence: H2N-LN(pY)IDLDLV(dPEG8)LST(pY)ASINFQK-amide). […]

For `CN(c1cnc2c(-c3cccc4ncccc34)n[nH]c2n1)[C@@H]1CCCC[C@@H]1N`, the pIC50 was over 6.00.

The pIC50 is the IC50 on a negative log10 scale, so that one unit is a factor of ten.

These data come from patent US11701354B2, “Pyrazolo[3,4-b]pyrazine derivatives as SHP2 phosphatase inhibitors” (Relay Therapeutics, Inc., priority 2017, dated 2023).
